Consider one compound from patent US20220325245A1 (Board of Regents, The University of Texas System, priority 2019, published 2022).

In this test the test system is iC9/CAR.19/IL15-transduced CB-NK cells. The test is described as follows: Activation of inducible caspase-9 suicide gene in vitro (annexin-V/7AAD staining). Type of test: cell-based. Particulars: 10 nM dimerizer, within 4 hours. An excerpt: FIGS. 30A-30B: Activation of the inducible caspase-9 suicide gene eliminates iC9/CAR.19/IL15+ CB-NK cells.
iC9/CAR.19/IL15+ CB-NK cells are eliminated after activation of the suicide gene by exposure to a small-molecule dimerizer. To counteract the possibility of excessive toxicity mediated by the release of inflammatory cytokines by transduced CB-NK cells or uncontrolled NK cell growth, we incorporated a suicide gene based on the inducible caspase-9 gene in the construct (Di et al., 2011). […] The suicide gene was also effective in vivo.

For `CC[C@H](C(=O)N1CCCC[C@H]1C(=O)O[C@H](CCc1ccc(OC)c(OC)c1)c1cccc(OCC(=O)NCCNC(=O)COc2cccc([C@@H](CCc3ccc(OC)c(OC)c3)OC(=O)[C@@H]3CCCCN3C(=O)[C@@H](CC)c3cc(OC)c(OC)c(OC)c3)c2)c1)c1cc(OC)c(OC)c(OC)c1` [AP1903], the “apoptosis/necrosis of transgenic cells” value stood at 60%.
